Entries after “also recorded” stand apart in the source; their conditions may differ.

Common to all, as to format: cell-based, human
Test [1] has as its system Population 2 cells derived from CRC tumors. Description: Expansion of cells from CRC tumor single cell suspensions in recombinant IL-2. The settings on record: 300 IU/mL (low) vs 6000 IU/mL (high) recombinant IL-2; SCS from CRC tumors; 14-31 days. The method, then: (§1) Tumors were processed as described in Example 1 to generate 1-8 mm in diameter fragments or SCS cultures, which were then incubated under conditions to expand T cell populations present within the tumor. Cultures were grown under various tested conditions in the presence of recombinant IL-2 as described below in order to assess cellular expansion. Among the conditions that were tested were the effect of the type of culture plate, culture media, and concentration of IL-2 on cell expansion.
Single cell suspensions (SCSs) were obtained by homogenization and enzyme digestion of primary tumors from donor patients with CRC or melanoma. As described in Example 1, cells were cultured in a conventional 6-well plate or a gas-permeable 24-well culture plate. Where possible, multiple conditions from each donor were initiated and averaged (error bars represent ± standard deviation). For 6-well plates, cells were seeded between 250,000 and 1,000,000 cells/mL and for gas-permeable 24-well plates cells were seeded between 5,000 and 750,000 cells/mL. […]
(§2) For all conditions, cell counts were performed approximately every other day using the NC-200 Automated Cell Counter (Chemometec) and samples were collected for fluorescence-activated cell sorting (FACS). […]

In test [2] the test system is cells processed from melanoma tumor fragments. As to the kind of experiment: Anti-CD3 (OKT3) stimulation on expansion of melanoma tumor-derived cells. The settings on record: Donor 6; OpTmizer media, 300 IU/mL IL-2, absence of anti-CD3 stimulation (-OKT3). The method, then: Cells processed from melanoma tumor fragments as described in Examples 1 and 2, were cultured in the presence or absence of 50 ng/mL OKT3, a human anti-CD3 monoclonal antibody. Cell cultures were carried out to between 14 and 31 days, such as between 14 and 21 days, in either a conventional 6-well plate or a gas permeable culture plate with RPMI or OpTmizer media. The cultures also were supplemented with 300 or 6000 IU/mL recombinant IL-2, 10 μg/mL gentamicin and a final concentration of 2.0 mM of a L-alanyl-L-glutamine dipeptide form of glutamine (GlutaMAX Supplement; Thermofisher). About 50% of cellular media was exchanged every other day beginning on the 5th day of culture as described previously. Cells were then counted using the NC-200 Automated Cell Counter (Chemometec).

Test [3] relates to Population 2 cells derived from primary melanoma tumors. Description: Expansion of cells from melanoma tumor fragments in recombinant IL-2. As to conditions: 300 IU/mL (low) vs 6000 IU/mL (high) recombinant IL-2, 14-31 days. The procedure:
as §1
For expansion from tumor fragments, an individual 1-8 mm tumor fragment, obtained as described in Example 1 from primary tumors of donor patients with CRC or melanoma, was placed in a well of a gas-permeable 24-well culture plate or a 6-well plate, and cultured in either RPMI containing 5% human serum or serum free OpTmizer medium with recombinant IL-2 supplemented at a concentration of 300 IU/mL or 6000 IU/mL. The media also contained gentamicin at 10 μg/ml, and a final concentration of 2.0 mM of a L-alanyl-L-glutamine dipeptide form of glutamine (GlutaMAX Supplement; Thermofisher). […]
as §2

Turning to “IL-2: cytokine that supports T cell recovery and proliferation”, the “cellular expansion (total cell number, fold expansion)” value in test [1] and in test [3] was “did not result in an appreciably distinct expansion response; also recorded: not observed to be necessary for cellular expansion” each time. In test [2], this substance came in with a fold expansion of 13 fold.

For the origin of these results see patent US20230032934A1, “METHOD OF PRODUCING TUMOR-REACTIVE T CELL COMPOSITION USING MODULATORY AGENTS” (Myst Therapeutics, LLC, priority 2019, published 2023).
